## Ab-14 light chain CDR variants: yeast mating affinities

The target is the same throughout: PDVDLGDISGINAS, from the HR2 region of SARS-CoV-2 spike.

Ab-14 is the parent antibody, in scFv form: VH, then three GGGGS repeats, then VL. The heavy chain is unchanged in all variants.
VH: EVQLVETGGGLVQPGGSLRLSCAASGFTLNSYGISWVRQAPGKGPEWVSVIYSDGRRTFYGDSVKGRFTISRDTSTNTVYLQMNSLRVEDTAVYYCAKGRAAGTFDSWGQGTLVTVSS
VL: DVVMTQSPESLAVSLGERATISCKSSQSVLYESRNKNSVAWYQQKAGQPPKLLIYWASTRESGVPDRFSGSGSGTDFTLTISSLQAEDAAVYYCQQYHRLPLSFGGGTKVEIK

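The parent was found by panning a naive human phage display library on the peptide. This is the validation round: designs drawn from the data on random variants, tested in the same kind of assay. Group labels follow the data file (Ctrl: baseline library sampled from a position-specific scoring matrix, with some repeated check sequences; En: ensemble of fine-tuned language models; GP: Gaussian process model; HC: hill climbing; Gen: genetic algorithm; Gibbs: Gibbs sampling; a sequence that several methods proposed may carry one label only). AlphaSeq pools MATa yeast showing the antibodies with MATalpha yeast showing the peptide. After mating in shaken culture at 30 °C for 16 h, diploids were selected and their barcode pairs sequenced. A regression on co-assayed BCL2-family reference pairs converts the normalised counts of each replicate to an apparent Kd. The assay was run in six technical replicates.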

Each variant is given by its three light chain CDRs, as the data file delimits them; those of the parent are KSSQSVLYESRNKNSVA, WASTRES, QQYHRLPLS. The read-out is the apparent dissociation constant on a log10 scale (nM): the lower, the stronger. The mean shown is taken over the replicates in which the pair was detected. An entry "nd" has no value in the source: the pair was not observed among the diploids in that replicate. This suggests poor binding but is not conclusive. Some sequences occur more than once in the pool; their replicates are listed entry by entry, parted by semicolons. A sequence measured in both rounds can read differently, since the two assays cover different ranges. In the paper, a design with two or fewer of six values counts as a poor binder. Background: pairings of all light chain designs with three empty control strains gave a value in 4% of cases (median 2.64, 5th percentile 1.59). Values in that range, when seen in few replicates, are hard to tell from nonspecific mating. The control count says in how many pairings with the empty strains this scFv gave a signal, with their mean in brackets.

replicates, log10 nM | mean log10 Kd (nM) | empty controls | CDR-L1 | CDR-L2 | CDR-L3 | group
-0.36 -0.13 -0.36 -0.66 -0.29 -0.37 | -0.36 | 0 of 18 | KVSPSELYESRNKNSVA | QASTRES | QQYHRLPLS | GP_HC
0.34 0.64 0.19 0.29 0.34 0.20 | 0.33 | 0 of 18 | KFSGVKEMVNKDQESIA | DAHTVQE | QQYSRLPLA | En_Gibbs
0.27 0.30 0.02 0.06 0.02 0.17 | 0.14 | 2 of 18 (2.73) | KLRQSTLYESRNTNSVA | NASTRES | QQYHRLPLS | GP_HC
0.75 1.35 -0.75 0.48 0.09 1.06 | 0.50 | 1 of 18 (2.39) | NLNTEYYTGTSNWDNIA | HGSMVEA | QQYFQLPIQ | En_Gibbs
0.00 0.04 -0.17 -0.26 -0.32 -0.15 | -0.14 | 2 of 18 (3.56) | KLSQSELYESRQKNSVA | NASTRES | QQYHRLPLS | GP_Gen
0.25 0.32 0.36 0.31 0.06 0.27 | 0.26 | 0 of 18 | KQSQSVLGEWRNKNSVA | DASTRES | QQYHRLPLS | GP_HC
0.09 0.20 0.16 0.18 0.02 0.38 | 0.17 | 1 of 18 (2.79) | KLSQSVWYESRNKNSVA | NASTRCS | QQYHRLPLS | GP_Gen
0.24 0.46 0.47 0.36 0.09 0.31 | 0.32 | 1 of 18 (1.75) | KLSAATRMESRNKASVA | ENSTRES | QQYFRLPLS | En_HC
0.46 0.79 -0.11 0.49 0.64 0.40 | 0.45 | 0 of 18 | MISDLTMHGSRNKNSVA | DSSTRGS | QQYHRLPLS | En_HC
0.40 0.37 nd -0.30 0.07 0.47 | 0.20 | 0 of 18 | TLLYGVTEAAKPGKAIA | NNEERAQ | QQYFRLPLS | En_Gibbs
nd nd nd nd nd nd | nd | 0 of 18 | KSPQGVLYESRNKNSVA | GASTRES | QQYHRLPLH | GP_HC
0.88 0.32 0.50 0.92 0.98 0.73 | 0.72 | 1 of 18 (2.61) | KSSISYLYESRNENSVA | EASIREQ | QQYHRLPLS | GP_HC
0.33 0.26 0.24 0.28 0.37 0.44 | 0.32 | 1 of 18 (4.12) | KLSMSVLYESRNKNSVA | NASTREQ | QQYHRLPLS | GP_Gen
-0.01 -0.08 -0.19 -0.15 -0.34 -0.06 | -0.14 | 0 of 18 | HSSPSVAYESRNKNSVA | NASTREQ | QQYHRLPLS | GP_HC
0.87 1.07 0.34 0.91 0.54 0.74 | 0.75 | 0 of 18 | KSSQSVLYESYNKNPVA | QASTRES | QQYHRLPLS | Ctrl
2.14 0.85 1.16 0.84 1.14 1.14 | 1.21 | 0 of 18 | KISQMARVGSTHGNSIA | EMVTRCN | QQYHRLPLS | En_Gen
nd nd nd nd nd nd | nd | 0 of 18 | KSSQSVLFESRNKNSVA | WASTRES | QYYMRLPLS | Ctrl
0.54 0.35 0.21 0.07 0.47 0.56 | 0.37 | 3 of 18 (2.95) | KLSMSVLYEDRHSNSVA | NASKRFS | QQYHRLPLS | GP_Gibbs
1.03 0.48 0.39 1.49 0.55 0.46 | 0.73 | 0 of 18 | SVTRYTDENGLKMQSIA | GAGNRMT | QQYHRLPLT | En_Gibbs
-0.01 -0.06 -0.18 -0.17 -0.27 0.00 | -0.12 | 1 of 18 (3.56) | KLSQSVLMESRNKNSVA | EASTRES | QDYHRLPLS | GP_Gen
1.71 2.67 nd nd 4.39 2.54; nd 1.68 nd nd nd nd; 1.46 1.06 1.33 nd 1.10 3.72; nd nd nd nd nd nd; nd nd nd nd nd 2.48 | 2.20 | 2 of 90 (2.31) | YSSQSVLYESRNKNSVA | WASTRES | QQYHRLPLS | Ctrl
0.22 0.14 0.13 0.00 0.22 0.33 | 0.17 | 1 of 18 (2.65) | KQQQSAWMEERNFNSVA | HASTRES | QQYHRLPLS | GP_Gibbs
-0.38 -0.40 -0.36 -0.44 -0.54 -0.36 | -0.41 | 2 of 18 (3.25) | KSSLSFLYESRNKNSVA | GASTRES | QQYHRLPLS | GP_HC
0.13 -0.07 -0.29 -0.42 -0.24 -0.05 | -0.16 | 2 of 18 (3.14) | KLGDMVHTLSRNKNSIA | DMRTRES | QQYHRLPLS | En_HC
2.07 1.75 1.65 1.99 2.11 1.50 | 1.85 | 0 of 18 | KISQMQRVGSTHGNSIA | EEATRAK | QQYHRLPLF | En_Gen
0.83 0.74 0.73 0.85 0.69 0.77 | 0.77 | 1 of 18 (4.17) | TISGLIMMPSRAKNSVA | NTSTRYS | QQYHRLPLS | En_HC
nd nd nd nd nd nd | nd | 0 of 18 | KLLQEVTGHSRQRNSVA | HNSTRED | QQYDRLPLS | En_HC
nd nd nd nd nd nd | nd | 0 of 18 | DSSQSVLYESRNKNSVA | DASTRES | QQYHRFPPS | Ctrl
nd nd 0.80 nd 3.15 1.48 | 1.81 | 0 of 18 | KIRVHNLMFSQNESSIA | GQSNRSE | QQYYHLPLT | En_Gibbs
nd nd nd nd nd nd | nd | 0 of 18 | KSSQSCSYESRNKNSVA | SASTRES | FQYHRLPLS | Ctrl
0.42 0.43 0.24 0.17 0.36 0.36 | 0.33 | 2 of 18 (3.51) | SVRHPFQGENGMKGSVA | NATIRDQ | QQYFRLPLF | En_Gibbs
-0.01 -0.09 -0.25 -0.16 -0.28 -0.01 | -0.13 | 0 of 18 | KSSQSFLYESRNVNSVA | DASTRES | QQYHRLPLS | GP_HC
nd nd nd nd nd nd | nd | 0 of 18 | KSSDSVGYESRNKNSVA | WASTRVE | QQYHRLCLS | Ctrl
nd nd nd 0.63 nd nd | 0.63 | 0 of 18 | IISGSMLMESRNKNSVA | NAQTREY | QHYDRLPLS | En_HC
0.61 0.10 -0.18 0.10 0.14 0.24 | 0.17 | 0 of 18 | HLSPSTLYESRNKNSVA | NASTRES | QQYHRLPLS | GP_HC
2.40 1.55 1.71 2.07 1.94 3.06 | 2.12 | 1 of 18 (1.54) | QLGMATMLQETVRNSVA | NNSTRES | QQYDRLPLS | En_Gen
0.93 1.35 1.11 0.71 0.64 2.00 | 1.12 | 0 of 18 | NISINVADEYAMRNNIA | NTAWKAI | QQYFHLPLM | En_Gibbs
0.92 1.34 1.76 2.08 1.47 1.81 | 1.56 | 0 of 18 | ILSQSVMMGSHLKNSVA | QASTRFS | QQYHRLPLM | En_HC

2 of these entries, quoted again:

CDR-L1 | CDR-L2 | CDR-L3 | group | replicates, log10 nM | mean log10 Kd (nM) | empty controls
KLSMSVLYEDRHSNSVA | NASKRFS | QQYHRLPLS | GP_Gibbs | 0.54 0.35 0.21 0.07 0.47 0.56 | 0.37 | 3 of 18 (2.95)
HSSPSVAYESRNKNSVA | NASTREQ | QQYHRLPLS | GP_HC | -0.01 -0.08 -0.19 -0.15 -0.34 -0.06 | -0.14 | 0 of 18

Source: Li et al. 2023 (doi:10.1038/s41467-023-39022-2), MIT Lincoln Laboratory and A-Alpha Bio; data file from the FLAb repository.